TDP1 cell CPT: DT40-hTDP1 cell growth loss with CPT. Potency, µM (doses to about 46.2 µM), hits mostly inhibitors. chicken DT40 Tdp1-/-;hTDP1 cells + 20 nM CPT, ATP luminescence, 48 h. 420,000 tested, 12% active; note: nearly all actives have a fitted effect of over 55% in size
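Cell growth measured by CellTiter-Glo luminescence after a minimum 48 h, 37 C compound exposure with 20 nM CPT in Tdp1-knockout DT40 cells stably expressing hTDP1, seeded 400/well; qHTS titration format.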
uPA generation: cell surface uPA generation inhibition; cell surface uPA generation assay, qHTS; Potency, µM (top dose mostly 38.3 µM), most hits filed as inhibitors; 330,000 tested, 0.31% active; AID 540303; active = well fitted inhibition curve with a large enough effect; inconclusive = small, poorly fitted or top-dose-only effect; inactive = no such curve, though single readings can be large or run the other way; tested in mouse RAW 264.7 cells; note: nearly all actives have a fitted effect of over 55% in size
DT40 TDP1 no CPT: qHTS for Inhibitors of human tyrosyl-DNA phosphodiesterase 1 (TDP1): qHTS in cells in absence of CPT; 420,000 tested, 15% active; Potency, µM (doses to about 46.2 µM), usual class: inhibitors; DT40 Tdp1-/- hTDP1 cells, no CPT, ATP luminescence, 48 h; note: nearly all actives have a fitted effect of over 55% in size
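No-CPT arm: Tdp1-/-;hTDP1 DT40 cells (400/well) plus compounds, incubated ≥48 hr at 37 °C. Readout CellTiter-Glo luminescence.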
miR-21 FLuc: raises the signal of a miR-21 reporter | HeLa miR-21 FLuc reporter, luciferase, 48 h | Potency, µM (doses to about 38.3 µM) | 340,000 tested, under 10 active | AID 2288; active = well fitted rising curve with a large enough effect; inconclusive = small, poorly fitted or top-dose-only effect; inactive = no such curve, though single readings can be large or run the other way;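 note: miR-21 action dims this reporter so a rising signal means less miR-21 action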
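Luminescence from a firefly luciferase reporter carrying a miR-21 binding site downstream, stably expressed under a CMV promoter in HeLa cells that make miR-21 endogenously, reports miRNA modulation after 48 h compound exposure up to approximately 40uM final.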
TDP1 block: blocks human tyrosyl-DNA phosphodiesterase 1. recombinant TDP1, AlphaScreen DNA substrate cleavage. Potency, µM (series often up to 130 µM), actives largely listed as inhibitors. 350,000 tested, 0.28% active; note: nearly all actives have a fitted effect of over 40% in size
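Steps: enzyme plus compound, 15 min RT; add biotin/phosphotyrosine-FITC oligonucleotide (15 nM final), react 5 min; add donor/acceptor beads (10 ug/ml final), 10 min; read AlphaScreen. Tdp1 at 1 nM final.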
Hits are given with their value. Rows were chosen to be rich in hits. Some 16% of all compounds tested hit in one or more screens of this group. Unless noted, calls come from the whole dose curve; as a rule, active = well fitted curve in the direction sought with a large enough effect; inconclusive = small, poorly fitted or top-dose-only effect, or another doubt; inactive = no such curve, though single readings can be large; an effect the other way counts as inactive or inconclusive.

`CCN(C(=O)CSc1nc2ccc(OC)cc2[nH]1)c1c(N)n(Cc2ccccc2)c(=O)[nH]c1=O` gave TDP1 cell CPT inactive, uPA generation inactive and DT40 TDP1 no CPT inactive.
`COC(=O)c1ccc(CO/N=C/c2ccccc2OC)cc1` gave TDP1 cell CPT inactive, uPA generation inactive, DT40 TDP1 no CPT inactive and miR-21 FLuc inactive.
For CC(C)CC(=O)NN(C)c1nc(-c2ccccc2)nnc1C(F)(F)F the results were TDP1 cell CPT inactive, uPA generation inactive, DT40 TDP1 no CPT inconclusive, miR-21 FLuc inactive and TDP1 block inactive.
For CN(NC(=O)c1ccc(Cl)cc1)c1nc(-c2ccccc2)nnc1C(F)(F)F the results were TDP1 cell CPT 20.6µM, uPA generation inactive, DT40 TDP1 no CPT 14.6µM, miR-21 FLuc inactive and TDP1 block inactive.
Screening CN(N)c1nc2ccccc2nc1C(F)(F)F returned TDP1 cell CPT inconclusive, uPA generation inactive, DT40 TDP1 no CPT inconclusive, miR-21 FLuc inactive and TDP1 block inactive.
Cc1ccc(C(=O)NN(C)c2nc3ccccc3nc2C(F)(F)F)cc1 was read as TDP1 cell CPT 4.61µM, uPA generation inactive, DT40 TDP1 no CPT 3.66µM, miR-21 FLuc inactive and TDP1 block inactive.
Screening COc1ccccc1N(CC(O)COc1ccc(C)cc1)S(=O)(=O)c1ccccc1 (stereo not given) returned TDP1 cell CPT inactive, uPA generation inactive, DT40 TDP1 no CPT inconclusive, miR-21 FLuc inactive and TDP1 block inactive.
Cc1ccc(-c2nnc(CSc3nc4cc5c(cc4cc3C)OCO5)o2)cc1 was read as TDP1 cell CPT inconclusive, uPA generation inactive, DT40 TDP1 no CPT 20.6µM, miR-21 FLuc inactive and TDP1 block inactive.
`CC(C)/C(C=O)=C(/NC1CCCCC1)c1ccccc1` gave TDP1 cell CPT inactive, uPA generation inactive and DT40 TDP1 no CPT inconclusive.
`C=CCc1cccc(CNc2cnc3ccccc3c2)c1O` gave TDP1 cell CPT 6.51µM, uPA generation inconclusive, DT40 TDP1 no CPT 10.3µM and miR-21 FLuc inactive.
Screening Oc1ccccc1CNc1cnc2ccccc2c1 returned TDP1 cell CPT 23.1µM, uPA generation inactive, DT40 TDP1 no CPT 23.1µM, miR-21 FLuc inactive and TDP1 block inactive.
C=CCc1cccc(CNc2nc3ccccc3n2C)c1O was read as TDP1 cell CPT inconclusive, uPA generation inactive, DT40 TDP1 no CPT inactive and miR-21 FLuc inactive.
Screening Oc1ccc2ccccc2c1CNc1cnc2ccccc2c1 returned TDP1 cell CPT inactive, uPA generation inactive, DT40 TDP1 no CPT inactive, miR-21 FLuc inactive and TDP1 block inactive.
Screening Oc1ccc(Cl)cc1CNc1cnc2ccccc2c1 returned TDP1 cell CPT inconclusive, uPA generation inactive, DT40 TDP1 no CPT 29.1µM, miR-21 FLuc inactive and TDP1 block inactive.
N#CC1(c2ccccc2)CCCN1C(=O)c1ccccc1Cl (stereo not given) was read as TDP1 cell CPT inactive, uPA generation inactive, DT40 TDP1 no CPT inactive, miR-21 FLuc inactive and TDP1 block inactive.
CCc1c(C)nc(N2CCN(c3ccc(OC)cc3)CC2)[nH]c1=O was read as TDP1 cell CPT inconclusive, uPA generation inactive, DT40 TDP1 no CPT 20.6µM and miR-21 FLuc inactive.
Cc1nnc(N2CCN(c3ccccc3)CC2)[nH]c1=O was read as TDP1 cell CPT 5.17µM, uPA generation inactive, DT40 TDP1 no CPT 5.8µM, miR-21 FLuc inactive and TDP1 block inactive.
CCc1c(C)nc(N2CCN(c3cccc(OC)c3)CC2)[nH]c1=O was read as TDP1 cell CPT inconclusive, uPA generation inactive, DT40 TDP1 no CPT inconclusive and miR-21 FLuc inactive.
`CCc1c(C)nc(N2CCN(c3ccc(F)cc3)CC2)[nH]c1=O` gave TDP1 cell CPT inconclusive, uPA generation inactive, DT40 TDP1 no CPT inactive and miR-21 FLuc inactive.
COc1ccc(OC(C)C(=O)Nc2ccccc2F)cc1 (stereo not given) was read as TDP1 cell CPT inactive, uPA generation inactive, DT40 TDP1 no CPT inactive, miR-21 FLuc inactive and TDP1 block inactive.
For Cc1cccc(OCC(=O)NCc2ccc3c(c2)CCN3C(=O)c2ccccc2)c1 the results were TDP1 cell CPT inconclusive, DT40 TDP1 no CPT 23.1µM, miR-21 FLuc inactive and TDP1 block inactive.
Screening Cc1cccc(C(=O)N2CCc3cc(CNC(=O)c4ccc(Br)o4)ccc32)c1 returned TDP1 cell CPT 18.4µM, DT40 TDP1 no CPT inconclusive, miR-21 FLuc inactive and TDP1 block inactive.

Screens from PubChem.
